# Reference: ChEMBL document CHEMBL1125916 (1991)
# Species on record: Mus musculus
row,Compound,LC50 [µM]
1,NP(=O)(OCc1ccc(F)cc1F)N(CCCl)CCCl (stereo not drawn),19.6
2,COP(N)(=O)N(CCCl)CCCl (stereo not drawn),16.5
3,NP(=O)(OCc1ccccc1)N(CCCl)CCCl (stereo not drawn),6.1
